# Laboratory results reported in US8697095B1, “Inhibition of replication of oncogenic herpesviruses” (priority 2004, dated 2014).
# Test system: KSHV
structure (smiles),measurement,setting,value
Cc1c(C(=O)NN2CCCCC2)nn(-c2ccc(Cl)cc2Cl)c1-c1ccc(Cl)cc1 [SR141716A],Effect on spontaneous KSHV reactivation,"BCBL-1, without THC",no effect
same,Reversal of inhibition of linear DNA synthesis by THC,"both antagonists, 1.25 μg/ml THC",reversed
same,Reversal of THC inhibition of KSHV DNA synthesis,single receptor antagonist,not reversed
